Data on 1 compound can be found in ChEMBL document CHEMBL1145376, “C-8 Modifications of 3-alkyl-1,8-dibenzylxanthines as inhibitors of human cytosolic phosphoenolpyruvate carboxykinase” (Bioorg Med Chem Lett, 2007).

Chains of the proteins cited; added tags and fusions are not shown.
UniProt P35558, whole entry: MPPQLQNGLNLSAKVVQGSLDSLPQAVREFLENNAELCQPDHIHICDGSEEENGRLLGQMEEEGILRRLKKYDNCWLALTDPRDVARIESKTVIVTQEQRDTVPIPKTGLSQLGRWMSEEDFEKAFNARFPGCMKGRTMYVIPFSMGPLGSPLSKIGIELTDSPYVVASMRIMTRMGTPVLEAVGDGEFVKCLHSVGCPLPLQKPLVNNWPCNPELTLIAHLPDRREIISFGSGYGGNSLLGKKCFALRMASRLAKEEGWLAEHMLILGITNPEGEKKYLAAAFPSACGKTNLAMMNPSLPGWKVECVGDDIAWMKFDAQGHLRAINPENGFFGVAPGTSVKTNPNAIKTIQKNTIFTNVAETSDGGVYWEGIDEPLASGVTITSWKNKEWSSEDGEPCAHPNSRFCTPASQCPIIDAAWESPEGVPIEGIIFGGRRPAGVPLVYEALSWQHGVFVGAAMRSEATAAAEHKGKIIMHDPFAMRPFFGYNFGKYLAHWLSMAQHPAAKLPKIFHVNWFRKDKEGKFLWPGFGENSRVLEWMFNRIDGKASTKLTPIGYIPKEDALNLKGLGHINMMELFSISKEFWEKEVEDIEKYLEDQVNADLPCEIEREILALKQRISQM

The target of the test is Phosphoenolpyruvate carboxykinase, cytosolic [GTP] (Homo sapiens, UniProt P35558). The experiment in a line: Inhibition of human cPEPCK.

Each structure is given as a SMILES string.

Usually IC50 stands for the point on the concentration scale where inhibition reaches its midpoint. A lower IC50 goes with greater potency. In turn, `CCCCn1c(=O)n(Cc2ccccc2F)c(=O)c2[nH]c(Cc3ccc(NS(=O)(=O)c4cn(C)cn4)cc3)nc21` returned an IC50 of 630 nM.
